Results taken from US20090042809A1, “Blood Pressure Lowering Protein Hydrolysates” (priority 2005, published 2009).

Key:
ACE [1] = test: modified Matsui ACE inhibition assay (Hip-His-Leu, TNBS); assay type: biochemical
Procedure: To determine the ACE inhibition activity of MAP and ITP, the chemically synthesised tripeptides were assayed according to the method of Matsui et al. (Matsui, T. et al. (1992) Biosci. Biotech. Biochem. 56: 517-518) with some minor modifications.
Each one of the four samples contained 75 μl 3 mM hippuryl histidine leucine (Hip-His-Leu, Sigma Chemicals) dissolved in a 250 mM borate solution containing 200 mM NaCl, pH 8.3. ACE was obtained from Sigma Chemicals. The mixtures were incubated at 37° C. and stopped after 30 min by adding 125 μl 0.5 M HCl. […] After incubation for 20 min. at 37° C., 4 ml 4 mM Na2SO3 in 0.2 M NaH2PO4 was added and the light absorbance at 416 nm was measured with UV/Vis spectrophotometer (Shimadzu UV-1601 with a CPS controller, Netherlands).
The amount of ACE inhibition (ACEI) activity was calculated as a percentage of inhibition compared with the conversion rate of ACE in the absence of an inhibitor according to the following formula: […]
wherein • Control 1=Absorbance without ACE inhibitory component (=max. ACE activity) [AU]. • Control 2=Absorbance without ACE inhibitory component and without ACE (background) [AU]. • Sample 1=Absorbance in the presence of ACE and the ACE inhibitory component [AU]. • Sample 2=Absorbance in the presence of the ACE inhibitory component, but without ACE [AU].

[2] = gastrointestinal treatment (GIT) simulating digestion with pepsin and pancreatin; assay type: in vitro ADME, human
Procedure: After consumption, dietary proteins and peptides are exposed to various digestive enzymatic processes in the gastrointestinal tract. In order to assess the stability of the newly identified bioactive peptides in the human gastrointestinal tract, the CDBAP preparation (prepared as described in Example 7) was subjected to a gastrointestinal treatment (GIT) simulating the digestive conditions typically found in the human body. Samples obtained after various incubation times in the GIT model system were analysed using the on-line HPLC-Bioassay-MS or HRS-MS system to quantify any residual MAP and ITP peptides. The GIT procedure was performed in a standardized mixing device incorporating a 100 ml flask (as supplied by Vankel, US). The temperature of the water bath was set to 37.5° C. and the paddle speed was chosen such that the sample was kept in suspension (100 rpm).
About 3.4 grams of CDBAP (protein level of approx 60%) was dissolved/suspended in 100 ml Milli-Q water. During gastric simulation 5 M HCl was used to decrease the pH. At the end of gastric simulation and during the duodenal phase 5 M NaOH was used to raise the pH.
The CDBAP suspension was preheated to 37.5° C. and 5 ml of the suspension was removed to dissolve 0.31 g of pepsin (Fluka order no. 77161). At t=0 min the 5 ml with the now dissolved pepsin was added back to the suspension. Then the pH of the CDBAP suspension was adjusted slowly by hand using a separate pH meter according to the following scheme:
t=20 min pH decreased to 3.5 t=40 min pH to 3.0 t=50 min pH to 2.3 t=60 min pH to 1.8 t=65 min pH raised to 2.7 t=75 min pH to 3.7 t=80 min pH to 5.3 […]
Then the samples were transferred into a beaker and were placed in a microwave till boiling. […] The total N concentration of the powder as obtained was determined and converted to protein level using the Kjeldahl factor of casein (6.38). […] The levels of MAP and ITP surviving the proteolytic treatment according to the GIT procedure were determined as described in Example 7 and the data obtained are shown in Table 10.

ACE [3] = test: at-line ACE inhibition assay (HHL substrate, HPLC read-out); assay type: biochemical; conditions: at-line measurements used in the screening phase
Description: The presence of novel ACE inhibiting peptides in CDBAP was investigated by using 2-dimensional-chromatographic-separation combined with an at-line ACE inhibition assay and mass spectrometry for identification. In the first analysis the peptide mixture was separated on an ODS3 liquid chromatography (LC) column and ACE inhibition profiles were generated from the various fractions obtained. In a second analysis the fractions from the first column showing a high ACE inhibition were further separated on a Biosuite LC column using a different gradient profile. The fractions collected from this second column were split into two parts: one part was used for the at-line ACE inhibition measurement while the other part was subjected to MS and MS-MS analysis to identify the peptides present. […]
The 96 well plate was then analysed on a flash-HPLC-column. […] Hippuric acid (H) and HHL were monitored at 280 nm. The peak heights of H and HHL were measured and the ACE inhibition (ACEI) of each fraction was calculated according to the equation:
[formula] • ACEIα Percentage inhibition of the analyte • Dcw Degree of Cleavage by ACE of HHL to H and HL in water • Dca Degree of Cleavage of HHL to H and HL for the analyte The Degree of Cleavage was calculated by expressing the peak height of H as a fraction of the sum of the peak heights of H and HHL.

- IC50 (ACE [1]; as restated in the description, read-out: IC50 value in the Modified Matsui test): 0.5 µM
- IC50 (ACE [1]; chemically synthesized tripeptides, read-out: IC50 value, Modified Matsui assay): 0.4 µM
- Concentration of tripeptide in CDBAP before GIT procedure ([2]; CDBAP (Example 7), before passage): 2851.4 μg g^−1 powder
- Concentration of tripeptide in CDBAP after GIT procedure ([2]; CDBAP after GIT, pepsin then pancreatin, 125 min, 37.5° C.): 3095.8 μg g^−1 powder
- IC50 (ACE [3]): 3.8 µM
Compound: CSCC[C@H](N)C(=O)N[C@@H](C)C(=O)N1CCC[C@H]1C(=O)O [MAP, Met-Ala-Pro]
- resistance against GIT digestion ([2]; simulated gastro-intestinal digestion): high resistance; also recorded: resist gastrointestinal proteolytic degradation; also recorded: survive

“Also recorded” adds a separate entry of the source.
